Key:
[1] = tested on: NOD2; test: MDP-stimulated signal transduction in NOD2 reporter cell lines; type: cell-based; settings: reporter cell lines with low or overexpressed NOD2
[2] = tested on: non-NOD-stimulated NF-κB pathways; test: Non-NOD-stimulated NF-κB pathway reporter assays (TNF-α, doxorubicin, PMA/ionomycin); type: cell-based; settings: doxorubicin and PMA/ionomycin reporter assays

Compound: Cc1ccc(S(=O)(=O)n2c(N)nc3ccccc32)cc1 [Probe 13]
- Selectivity for NOD1-dependent over MDP-stimulated (NOD2-dependent) signal transduction [1]: > 40 fold
- Selectivity over non-NOD-stimulated NF-κB pathways [2]: selective

Reference: publication PMC3678512, “Synthesis and physicochemical characterization of novel phenotypic probes targeting the nuclear factor-kappa B signaling pathway” (Beilstein Journal of Organic Chemistry, 2013)
